In the experiment the target is T1, A3ARs (U87MG) (Homo sapiens, UniProt P0DMS8).
T1 construct: gene ADORA3; native receptor in membranes of U87MG glioblastoma cells
The experiment in a line: radioligand saturation binding, membranes. The following applies: no PEMF, […] °C, […] min, labelled compound. Here is the method: radioligand saturation binding, membranes on A3ARs (U87MG)

Protein sequences, listed by entry. Tags and fused reporters are not part of them.
UniProt P0DMS8, whole entry: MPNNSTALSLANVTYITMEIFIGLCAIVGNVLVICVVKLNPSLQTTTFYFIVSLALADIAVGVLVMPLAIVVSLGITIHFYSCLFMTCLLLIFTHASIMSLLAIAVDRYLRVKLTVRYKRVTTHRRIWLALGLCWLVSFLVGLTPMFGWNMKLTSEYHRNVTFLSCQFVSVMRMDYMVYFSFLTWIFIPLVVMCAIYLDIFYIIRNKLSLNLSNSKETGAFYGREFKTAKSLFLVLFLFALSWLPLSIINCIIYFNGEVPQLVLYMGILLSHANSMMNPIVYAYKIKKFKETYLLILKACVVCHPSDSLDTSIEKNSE

The structures appear in SMILES notation.

As usually defined, the Kd is a measure of binding affinity in units of concentration. Read a low Kd as a tighter complex. `CNC(=O)[C@H]1O[C@@H](n2cnc3c(NCc4ccc(N)c(I)c4)ncnc32)[C@H](O)[C@@H]1O` [[125I]-AB-MECA, [^125I]-4-aminobenzyl-5′-N-methylcarboxamidoadenosine] displayed a Kd of 2.14 ± 0.22 nM.

The values are drawn from paper PMC3382599, “The Anti-Tumor Effect of A3 Adenosine Receptors Is Potentiated by Pulsed Electromagnetic Fields in Cultured Neural Cancer Cells” (PLoS ONE, 2012).
